The values that follow come from ChEMBL document CHEMBL3352222, “2-Hexylthio-β,γ-CH2-ATP is an effective and selective NTPDase2 inhibitor” (J Med Chem, 2014).

The data set is described as follows: Stability assessed as human NTPDase4-mediated compound hydrolysis. The conditions noted are these: read-out: Drug degradation.

Take `CCCCCCSc1nc(N)c2ncn([C@@H]3O[C@H](COP(=O)(O)OP(=O)(O)CP(=O)(O)O)[C@@H](O)[C@H]3O)c2n1`: the metabolised came to 3%.
